Laboratory results as given in US20250235486A1, “Method of Producing Insulin-Producing Cells” (Monash University, priority 2022, published 2025).

How the values were obtained:
[1] = test system: Human pancreatic ductal epithelial cells; assay: qRT-PCR after 2- and 7-day EZH2 inhibitor stimulation of human pancreatic ductal epithelial cells; type: cell-based; details: GSK-126 10 μM, EPZ6438 1 μM, Triptolide 20 nM
[2] = test system: Human pancreatic ductal epithelial cells; assay: Glucose stimulated insulin secretion assay (ELISA); type: cell-based; details: 2-day stimulation (FIG. 13d); GSK126 10 μM, EPZ6438 1 μM, Triptolide 20 nM; not observed in DMSO control
Method: 5×10^5 cells were seeded in 12-well plates and allowed to adhere for 24 hours. Given the relatively high concentration of insulin in KSFM, cells were washed and cultured with CMRL-complete (CMRL 1066supplemented with Antibiotic-Antimycotic [Gibco], and Glutamax [Gibco]) to reduce the background insulin concentration of the ELISA. Cells stimulated with EZH2 inhibitors or vehicle control (DMSO) for 2, or 7 days, following which they were washed with 2.8 mM glucose Krebs Buffer Solution (25 mM HEPES, 115 mM sodium chloride, 24 mM sodium hydrogen carbonate, 5 mM potassium chloride, 1 mM magnesium chloride heptahydrate, 0.1% bovine serum albumin, and 2.5 mM calcium chloride dihydrate made up in deionized water) two times, and incubated for 1 hour to obtain the low glucose (basal) insulin secretion. Next, cells were cultured in 28 mM (High) glucose Krebs Buffer solution and incubated for 1 hour to obtain the glucose stimulated insulin secretion. Supernatant was collected and Ultrasensitive Insulin ELISA (Mercodia) was used to determine the concentration of insulin according to manufacturer's instructions. Fold change of insulin secreted by cells were calculated by adjusting to cells stimulated with EZH2 inhibitors for insulin concentrations compared to control.

## CCN(c1cc(-c2ccc(CN3CCOCC3)cc2)cc(C(=O)NCc2c(C)cc(C)[nH]c2=O)c1C)C1CCOCC1 [EPZ-6438, N-[(1,2-Dihydro-4,6-dimethyl-2-oxo-3-pyridinyl)methyl]-5-[ethyl(tetrahydro-2H-pyran-4-yl)amino]-4-methyl-4′-(4-morpholinylmethyl)[1,1′-biphenyl]-3-carboxamide]
[1]; 2 days
  insulin transcripts, unprocessed heterogenous nuclear form (INS hnRNA): elevations
[1]; 7 days
  insulin transcripts, unprocessed heterogenous nuclear form (INS hnRNA): maintained
[2]
  insulin concentration after incubation in high-glucose media (28 mM glucose, 1 hour): significant elevations
